Experimental data published in publication PMC10033409, “Autoregulation of GPCR signalling through the third intracellular loop” (Nature, 2023).
Counter-ions that a name gives are not always drawn.

Key:
β2AR = assay: cAMP accumulation (cAMP-Glo), β2AR; details: β2AR ∆ICL3
PTH1R–Gs peptide = assay: PTH1R-luciferase complementation reporter assay, Gs peptide; assay type: biochemical, human; details: PTH1R construct named by the receptor or protein whose sequence replaces ICL3 (WT = wild-type); X axis of Figure 5G
Experimental: For PTH1R luciferase complementation reporter assays, cells were seeded the day prior to transfection at 25-30% confluence on 12-well plates. For each transfection, 0.5 μg DNA, 1.5 μl X-tremeGENE HP, and 100 μl Opti-MEM were combined, incubated for 15-20 min, and added to seeded wells. For each mutant, PTH1R-Gs peptide, PTH1R-Gq peptide and PTH1R-(no peptide) constructs were transfected in parallel. Spep and Qpep constructs were transfected 24 h prior to collection, and no-peptide constructs were transfected 18 h before collection. […] The cell mixture was centrifuged (3 min, 300g) and the media was aspirated. Cell pellet was resuspended in 1 ml PBS and centrifuged again as above. […] Cellular debris was removed by centrifugation (1,000g for 1 min). To collect additional vesicles, debris was resuspended in 0.3 ml PBS, briefly vortexed, and centrifuged again (1,000g for 1 min). […] Vesicle samples were collected in a 96-well clear bottom plate and assayed for TagRFP fluorescence (Tecan Spark, excitation 521 nm, emission 585 nm, gain 150). […] The plate was tapped 2-3 times to mix, and the kinetic read was resumed. […] The maximum luminescence value that appeared stable over time was used for further analysis. Specific Spep and Qpep signals were calculated by subtracting the control value from the Spep value and the Qpep value for a given experiment.

Molecule	cAMP (Isoproterenol/Forskolin Maximum), Average (β2AR; isoproterenol 1 pM)	cAMP (Isoproterenol/Forskolin Maximum), Average (β2AR; isoproterenol 10 pM)	cAMP (Isoproterenol/Forskolin Maximum), Average (β2AR; isoproterenol 50 pM)	cAMP (Isoproterenol/Forskolin Maximum), Average (β2AR; isoproterenol 100 pM)	cAMP (Isoproterenol/Forskolin Maximum), Average (β2AR; isoproterenol 250 pM)	cAMP (Isoproterenol/Forskolin Maximum), Average (β2AR; isoproterenol 500 pM)	cAMP (Isoproterenol/Forskolin Maximum), Average (β2AR; isoproterenol 1e-9 M)	cAMP (Isoproterenol/Forskolin Maximum), Average (β2AR; isoproterenol 2.5e-9 M)	cAMP (Isoproterenol/Forskolin Maximum), Average (β2AR; isoproterenol 1.25e-8 M)	cAMP (Isoproterenol/Forskolin Maximum), Average (β2AR; isoproterenol 1e-7 M)	cAMP (Isoproterenol/Forskolin Maximum), Average (β2AR; isoproterenol 1e-5 M)	cAMP (Isoproterenol/Forskolin Maximum), Average (β2AR; isoproterenol 100 fM)	Specific Peptide Signal, Gs (Average) (PTH1R–Gs peptide)
CC(C)NCC(O)c1ccc(O)c(O)c1 (stereo not drawn) [Isoproterenol, isoproterenol (+)-bitartrate salt]	0.11	0.0218	0.0339	0.22	0.26	0.29	0.40	0.51	0.61	0.62	0.77	0.09	–
MDM2	–	–	–	–	–	–	–	–	–	–	–	–	0.38
